Biological target: T1, α-amylase derived from pancreas of pig (Sus scrofa, UniProt P00690)
T1 construct: the α-amylase derived from pancreas of pig; from tissue; host or cells: pig pancreas
T1 sequence (P00690 16-511): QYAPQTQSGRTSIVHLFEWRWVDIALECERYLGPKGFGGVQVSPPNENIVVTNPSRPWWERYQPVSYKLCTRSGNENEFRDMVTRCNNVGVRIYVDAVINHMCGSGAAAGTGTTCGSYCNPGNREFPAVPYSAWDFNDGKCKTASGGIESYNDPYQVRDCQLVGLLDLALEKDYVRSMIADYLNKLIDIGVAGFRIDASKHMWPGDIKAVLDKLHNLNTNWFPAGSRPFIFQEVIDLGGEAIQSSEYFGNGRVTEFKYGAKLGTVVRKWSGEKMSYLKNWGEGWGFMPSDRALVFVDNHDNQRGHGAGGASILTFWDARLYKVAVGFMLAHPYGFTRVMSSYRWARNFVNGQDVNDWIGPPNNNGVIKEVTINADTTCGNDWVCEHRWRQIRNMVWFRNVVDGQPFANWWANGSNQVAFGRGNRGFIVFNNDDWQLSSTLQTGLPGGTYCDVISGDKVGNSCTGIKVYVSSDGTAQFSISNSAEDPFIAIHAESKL
Experiment: Inhibitory activity against α-amylase derived from pancreas of pig (same method)
Type: biochemical

Catechin
IC50 against the α-amylase derived from pancreas of pig: 800 µg/mL

Source: patent US6932990B2, “Carbohydrate absorption inhibitor and method for manufacturing the same” (Oryza Oil & Fat Chemical Co., Ltd., priority 2000, dated 2005)
